The values below come from ChEMBL document CHEMBL1614632, “Trend analysis of a database of intravenous pharmacokinetic parameters in humans for 670 drug compounds” (Drug Metab Dispos, 2008).

A short description of series [1]: clinical.
The nature of series [2]: clinical. The source holds these as a separate data set.
Series [3] in a line: clinical. The following applies: human, in vivo, iv, t1/2.
The nature of series [4]: clinical. This is another data set of the same source.
A short description of series [5]: clinical. This is another data set of the same source.

As a reminder, the Vd is a proportionality between amount in the body and measured concentration, not a real space. A higher Vd goes with extensive tissue distribution. One may read the MRT as a mean duration of stay, worked out from the concentration-time curve. Broadly, the half-life is how long it takes for the measured level to halve. Read a high half-life as slow decline. As for `CC(C)NCC(O)c1ccc(NS(C)(=O)=O)cc1` (stereo unspecified) [SOTALOL], the volume of distribution (Vd) in “clinical [1]” turned out to be 1.3 L/kg. This compound yielded an MRT in the series “clinical [2]” of 11 h. Also, the half-life in the series “clinical [3]” is 6.3 h.

Regarding `OC(CCN1CCCCC1)(c1ccccc1)C1CC2C=CC1C2` (stereo unspecified) [BIPERIDEN], the Vd in the series “clinical [1]” is 12 L/kg. In “clinical [2]”, this compound showed an MRT of 17 h. Further, the half-life in the series “clinical [3]” is 24 h.

Usually clearance stands for the rate of elimination divided by the concentration. In turn, `Nc1ccn([C@H]2CC[C@@H](CO)O2)c(=O)n1` [ZALCITABINE] displayed a distribution volume (Vd) in the series “clinical [1]” of 0.54 L/kg. In the series “clinical [4]”, this compound yielded a clearance of 5.6 mL/min/kg. This compound returned an MRT in the series “clinical [2]” of 1.6 h. Moreover, the half-life in the series “clinical [3]” is 1.2 h.

For `O=C(c1ccccc1)c1ccc2n1CCC2C(=O)O` (stereo unspecified) [KETOROLAC], the MRT in “clinical [2]” worked out at 5.2 h. Moreover, in the series “clinical [3]”, the half-life was 5.1 h.

`NCCCC[C@H](N[C@@H](CCc1ccccc1)C(=O)O)C(=O)N1CCC[C@H]1C(=O)O` [LISINOPRIL ANHYDROUS] came in with a Vd in the series “clinical [1]” of 0.89 L/kg. The mean residence time MRT in “clinical [2]” turned out to be 12 h. In the series “clinical [3]”, this compound showed a half-life of 42 h.

In turn, `Nc1ncn([C@@H]2O[C@H](CO)[C@@H](O)[C@H]2O)c(=O)n1` [AZACITIDINE] registered a volume of distribution (Vd) in the series “clinical [1]” of 0.47 L/kg. Further, the clearance in the series “clinical [4]” is 35 mL/min/kg. This compound registered a mean residence time MRT in the series “clinical [2]” of 0.22 h. The compound further showed a half-life in the series “clinical [3]” of 0.36 h.

The compound `C[N+]1(CC2CC2)CC[C@]23c4c5ccc(O)c4O[C@H]2C(=O)CC[C@@]3(O)[C@H]1C5` (stereo partly specified) [METHYLNALTREXONE] gave a Vd in “clinical [1]” of 2.6 L/kg. The clearance in the series “clinical [4]” is 22 mL/min/kg. The same compound gave a half-life in “clinical [3]” of 2.5 h.

Consider `CC[C@H]1OC(=O)[C@H](C)[C@@H](O[C@H]2C[C@@](C)(OC)[C@@H](O)[C@H](C)O2)[C@H](C)[C@@H](O[C@@H]2O[C@H](C)C[C@H](N(C)C)[C@H]2O)[C@](C)(O)C[C@@H](C)C(=O)[C@H](C)[C@@H](O)[C@]1(C)O` [ERYTHROMYCIN], for which the half-life in “clinical [3]” is 2 h.

`CN1CCC[C@@H]1Cc1c[nH]c2ccc(CCS(=O)(=O)c3ccccc3)cc12` registered a volume of distribution (Vd) in “clinical [1]” of 1.6 L/kg. Besides, the clearance in the series “clinical [4]” came to 5.3 mL/min/kg. In the series “clinical [3]”, this compound had a half-life of 4.2 h.

In turn, `COc1ccc([C@@H]2Sc3ccccc3N(CCN(C)C)C(=O)[C@@H]2OC(C)=O)cc1` [DILTIAZEM] gave a clearance in “clinical [4]” of 13 mL/min/kg. The compound also showed a half-life in the series “clinical [3]” of 5.6 h.

What is called fraction unbound is the share of the substance not bound to proteins or other matrix. `CC=CC1=C(C(=O)O)N2C(=O)[C@@H](NC(=O)[C@H](N)c3ccc(O)cc3)[C@H]2SC1` [CEFPROZIL] gave an unbound share (fraction unbound) in “clinical [5]” of 0.59.

In the series “clinical [2]”, `CCCc1nc(C)c2c(=O)[nH]c(-c3cc(S(=O)(=O)N4CCN(CC)CC4)ccc3OCC)nn12` came in with an MRT of 3.8 h. The same compound had a half-life in “clinical [3]” of 4.5 h.
